Experimental findings from patent publication US20230137562A1, “TAU AGGREGATION INHIBITORS” (priority 2017, published 2023) are described below.

Amino acid sequences for entries named in this document (tags omitted). Chains listed by the source or under a name are the forms on record and can include a tag or linker.
UniProt P10636, other isoform, or with tags, fused parts or gaps limits assumed: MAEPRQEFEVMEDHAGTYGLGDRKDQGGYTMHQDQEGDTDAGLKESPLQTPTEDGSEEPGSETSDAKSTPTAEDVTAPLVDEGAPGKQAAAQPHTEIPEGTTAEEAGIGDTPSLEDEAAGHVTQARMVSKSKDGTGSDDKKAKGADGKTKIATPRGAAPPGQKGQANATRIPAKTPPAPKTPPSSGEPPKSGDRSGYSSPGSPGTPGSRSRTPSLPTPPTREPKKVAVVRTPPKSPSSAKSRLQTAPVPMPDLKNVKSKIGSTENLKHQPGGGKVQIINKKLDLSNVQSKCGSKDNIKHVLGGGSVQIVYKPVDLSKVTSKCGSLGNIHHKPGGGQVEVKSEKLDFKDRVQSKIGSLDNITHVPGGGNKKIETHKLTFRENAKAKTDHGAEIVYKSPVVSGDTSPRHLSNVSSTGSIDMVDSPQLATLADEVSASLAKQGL

For one assay, the target named is His-Tau40P301L Tau (UniProt P10636-8 1-441). The assay is described as follows: cell-based or functional assay.
For the next assay, the target named is T1, Ac-VQIINK-NH2 (N-terminal acetyl (Ac-); C-terminal amide (-NH2)).
T1 peptide: VQIINK
Put plainly: cell-based or functional assay.

Turning to LRIRLRL, in the assay with His-Tau40P301L Tau, the “IC50 (µM), Tau40 assay (ThT)” value stood at 0.69 µM. Further, the “IC50 (µM), VQIINK Inhibition (ThT)” value with Ac-VQIINK-NH2 is 3.22 µM.
